Literature values in publication PMC9191647 (2019).

Conditions: monkeys (Macaca mulatta), i.v. 0.2 mg/kg LSD; ref Axelrod et al., 1957; cited from earlier work

SMILES: CCN(CC)C(=O)[C@@H]1C=C2c3cccc4[nH]cc(c34)C[C@H]2N(C)C1 [LSD, D-lysergic acid diethylamide]
- plasma concentrations of LSD: > 250 ng/mL
